# Data reported in PubChem BioAssay AID1845 (The Scripps Research Institute Molecular Screening Center, 2009).
# Only a part is listed here, and it is no random draw. Some results for these compounds are left out of this collection, so the calls shown say nothing about other tests. Activity calls are given as the source filed them. Rule as the data show it: active = inhibition above about 37%; inactive = the rest.
# Test: DNA intercalator displacement agents – biochemical, FID fluorescence, artefact control for HCV NS3 helicase inhibitor project, primary screen (AID 1845);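 also: 0% = vehicle and 100% = reference compound; higher means more ethidium bromide displaced from hairpin DNA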
# Settings: DNA fluorescent intercalator displacement, at 7.9 µM, active compounds read high
row,SMILES,inhibition
1,COc1cccc(C(=O)NCC2(N3CCCCC3)CCCCC2)c1,inactive: 4.92%
2,COc1ccc(Cl)cc1C(=O)NCC1(N(C)C)CCCCC1,inactive: 1.15%
3,O=C(NCC1(N2CCCCC2)CCCCC1)c1cccc(Cl)c1,inactive: 1.07%
4,CN(C)C1(CNC(=O)c2ccc(Br)cc2)CCCCC1,inactive: -1.34%
5,COc1cc(C(=O)NCC2(N(C)C)CCCCC2)c([N+](=O)[O-])cc1OC,inactive: -5.57%
6,COc1ccc(Br)c(C(=O)NCC2(N3CCCCC3)CCCCC2)c1,inactive: -6.3%
7,CC(C)Oc1ccc(C(=O)NCC2(N(C)C)CCCCC2)cc1,inactive: 0.53%
8,CN(C)c1cccc(C(=O)NCC2(N(C)C)CCCCC2)c1,inactive: 6.24%
9,O=C(OC1CN2CCC1CC2)C(CO)(c1ccccc1)c1ccccc1 (centres undefined),inactive: 8.51%
10,CCN(CC)CC(C)C(C)OC(=O)C(O)(c1ccccc1)c1ccccc1 (centres undefined),inactive: 4.7%
11,COc1cc(SC)ccc1C(=O)NCC1(N(C)C)CCCCC1,inactive: -0.03%
12,CC(C)N1C(=O)CC2(CCN(CCOC(=O)C(O)(c3ccccc3)c3ccccc3)CC2)C1=O,inactive: 2.1%
13,Cc1ccc(C(=O)NCC2(N3CCCCC3)CCCCC2)cc1,inactive: -7.91%
14,O=C(NCC1(N2CCCCC2)CCCCC1)c1cc([N+](=O)[O-])ccc1Cl,inactive: 9.41%
15,CN1[C@@H]2CC[C@H]1CC(OC(=O)C(O)(c1ccccc1)c1ccccc1)C2 (some centres undefined),inactive: 0.69%
16,C=CCN1CCN(CCOC(=O)C(O)(c2ccccc2)c2ccccc2)CC1,inactive: 7.22%
17,O=C(NCC1(N2CCCCC2)CCCCC1)c1cc(F)c(F)cc1Cl,inactive: -7.05%
18,COc1ccc(C(=O)NCC2(N(C)C)CCCCC2)cc1,inactive: -4.41%
19,Cc1cc(C(=O)NCC2(N3CCCCC3)CCCCC2)ccc1[N+](=O)[O-],inactive: 5.24%
20,CCN1CCCC(OC(=O)C2(O)c3ccccc3C=Cc3ccccc32)C1 (centres undefined),inactive: 24.1%
21,O=C(NCC1(N2CCCCC2)CCCCC1)c1cccc(Br)c1,inactive: 4.56%
22,Cc1ccccc1C(=O)NCC1(N2CCCCC2)CCCCC1,inactive: -4.89%
23,CN(C)C1CCCC1OC(=O)C(O)(c1ccccc1)c1ccccc1 (centres undefined),inactive: -0.72%
24,CN(C)c1ccc(C(=O)NCC2(N(C)C)CCCCC2)cc1,inactive: -5.64%
